Bioassay records deposited in PubChem by several laboratories.
This is a sample that favours compounds with a hit; in the whole collection about 0.94% have one here.
ABCB6 inh 2: blocks the human ABCB6 transporter | fluorescence ratio to DMSO, % at 10 µM | K562-ABCB6 porphyrin accumulation, flow cytometry, 1 h; active compounds read low | 360,000 compounds, 0.19% hits | Q9NP58;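 active = fluorescence ratio to DMSO below 75%, the collection mean minus 3 SD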;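 also: signal is porphyrin accumulated inside mitochondria; 100% equals median channel fluorescence of DMSO control wells; lower ratio means ABCB6 inhibition with less porphyrin fluorescence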
p-CIP stab down: compounds decreasing mouse p/CIP protein stability; F442A p/CIP-EGFP cells, EGFP fluorescence, 16 h; decrease of EGFP signal, % at 10 µM; 290,000 compounds, 0.01% hits; AID 1984;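 active = EGFP signal decrease of at least 30% at 10 µM or well 3 SD below plate mean, unless failing retest; inactive = the rest, including hits failing retest or dose response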
PKA-R2B activ: activators of human PKA-R2B complex | P22694+P31323 | PKA-R2B holoenzyme dissociation, Cy5-IP20 fluorescence polarization; R2B truncated from residue 108, S112A mutant; 0% DMSO only, 100% 113 µM cGMP | activation, % at 11.4 µM | 340,000 compounds, 0.079% hits;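 active = activation above a cutoff set at the mean over all compounds plus 3 SD, cut at about 18% in these data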;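 also: higher means more holoenzyme dissociation and a rise in polarization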
Yeast UUG start: modulators of start codon recognition fidelity in yeast; AID 602363; activity score, % at 18.7 µM; S. cerevisiae UUG-firefly luciferase reporter, luminescence/redox ratio; actives 0.13% (n = 350,000);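 active = replicate mean at a twofold rise or more, about +100% in these data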;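 note: firefly luciferase made from a UUG start codon reports start codon fidelity; reporter light over untreated wells divided by growth signal over untreated wells; some hits fall short of that in this replicate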
PKA-R1A activ: PKA-R1A complex activation. P00514+P68181. PKA-R1A dissociation, Cy5-IP20 fluorescence polarization; scaled: DMSO 0%, 113 µM cGMP 100%. activation, % at 11.4 µM. 340,000 compounds, 0.083% hits. AID 504707;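 active = percent activation above the mean of all tested compounds plus 3 SD, cut at about 19% in these data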;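 also: higher means more PKAc released from R1A so a rise in polarization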
Exocytosis inh: lytic granule exocytosis inhibition; TALL-104 LAMP-1 surface exposure, flow cytometry; cells stimulated with thapsigargin and PMA; inhibition, % at 10 µM; 360,000 compounds, 0.66% hits;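 active = inhibition above about 55%, limit read from the data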
ABCB6 inh CP1: blocks the human ABCB6 transporter; ratio response (% of DMSO), % at 10 µM; K562-ABCB6 porphyrin accumulation, flow cytometry, 1 h; active compounds read low; shares compounds with ABCB6 inh 2; 700 tested, under 10 active;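 active = repeat-averaged ratio response below 75% of DMSO, the collection mean minus 3 SD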;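 also: median porphyrin fluorescence at 575 nm with 488 nm excitation from mitochondria; lower ratio means less porphyrin signal so ABCB6 inhibition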
Starred values were filed as active, the others as inactive.

C[C@H]1CCCCO[C@H](CN(C)S(C)(=O)=O)[C@@H](C)CN([C@@H](C)CO)C(=O)c2cc(NS(C)(=O)=O)ccc2O1 was read as Yeast UUG start 5.
CCn1c(=O)n(CC)c2cc(N3CCCC3)c(NC(=O)c3ccccc3C)cc21 was read as ABCB6 inh 2 64*, p-CIP stab down -1, PKA-R2B activ 0, Yeast UUG start -1, PKA-R1A activ -5, Exocytosis inh -2 and ABCB6 inh CP1 98.
Screening Cc1noc(C)c1NC(=O)Nc1ccc2c(c1)C(=O)N([C@H](C)CO)C[C@@H](C)[C@@H](CN(C)Cc1ccc(C(=O)O)cc1)OCCCC[C@H](C)O2 returned Yeast UUG start 1.
CNC[C@H]1Oc2ccc(NS(=O)(=O)c3ccc(Cl)cc3)cc2C(=O)N([C@@H](C)CO)C[C@H]1C was read as Yeast UUG start 1.
`Clc1ccc(CNc2nc(N3CCOCC3)nc(N3CCOCC3)n2)cc1` gave ABCB6 inh 2 11*, p-CIP stab down 4, PKA-R2B activ -14, Yeast UUG start -11, PKA-R1A activ -9, Exocytosis inh 6 and ABCB6 inh CP1 97.
Screening c1ccc(CNc2nc(N3CCOCC3)nc(N3CCOCC3)n2)cc1 returned ABCB6 inh 2 101, p-CIP stab down 3, PKA-R2B activ 5, Yeast UUG start -14, PKA-R1A activ -6 and Exocytosis inh 4.
For CCN1C(=O)CSc2ccc(C(=O)NCc3ccco3)cc21 the results were ABCB6 inh 2 53*, p-CIP stab down 3, PKA-R2B activ 1, Yeast UUG start 5, PKA-R1A activ 0, Exocytosis inh 3 and ABCB6 inh CP1 101.
For CSc1ccc(-c2cccc3nncn23)cc1 the results were ABCB6 inh 2 65*, Yeast UUG start -16, Exocytosis inh -1 and ABCB6 inh CP1 98.
Cn1cc(-c2cccc3nncn23)cn1 was read as ABCB6 inh 2 93, Yeast UUG start -13 and Exocytosis inh 14.
C[C@@H]1CCCCO[C@@H](CN(C)Cc2ccccc2)[C@H](C)CN([C@@H](C)CO)C(=O)c2cc(NC(=O)Nc3ccc4c(c3)OCO4)ccc2O1 was read as Yeast UUG start -4.
`COc1ccc(NC(=O)C2Cc3c(-c4cccc(F)c4)ccnc3O2)cc1OC` (stereo not drawn) gave ABCB6 inh 2 69*, Yeast UUG start -6, Exocytosis inh -4 and ABCB6 inh CP1 103.
CC(=O)Nc1ccc(-c2ccnc3c2CC(C(=O)Nc2ccccc2)O3)cc1 (stereo not drawn) was read as ABCB6 inh 2 101, Yeast UUG start -10, Exocytosis inh -4 and ABCB6 inh CP1 95.

Next part, starting with the last two of the part before.
`COc1ccc(NC(=O)C2Cc3c(-c4cccc(F)c4)ccnc3O2)cc1OC` (stereo not drawn) gave ABCB6 inh 2 69*, Yeast UUG start -6, Exocytosis inh -4 and ABCB6 inh CP1 103.
CC(=O)Nc1ccc(-c2ccnc3c2CC(C(=O)Nc2ccccc2)O3)cc1 (stereo not drawn) was read as ABCB6 inh 2 101, Yeast UUG start -10, Exocytosis inh -4 and ABCB6 inh CP1 95.
For CC(=O)Nc1ccc(NC(=O)C2Cc3c(-c4cccc(NC(C)=O)c4)ccnc3O2)cc1 (stereo not drawn) the results were ABCB6 inh 2 97, Yeast UUG start -2 and Exocytosis inh -4.
For CC(=O)Nc1ccc(NC(=O)C2Cc3c(-c4cccc(C(C)=O)c4)ccnc3O2)cc1 (stereo not drawn) the results were ABCB6 inh 2 102, Yeast UUG start -1, Exocytosis inh -3 and ABCB6 inh CP1 102.
`COc1ccc(NC(=O)C2Cc3c(-c4cccc(NC(C)=O)c4)ccnc3O2)cc1` (stereo not drawn) gave ABCB6 inh 2 102, Yeast UUG start -4, Exocytosis inh 4 and ABCB6 inh CP1 103.
Screening Cc1noc(C)c1S(=O)(=O)Nc1ccc2c(c1)C(=O)N([C@H](C)CO)C[C@H](C)[C@H](CN(C)CC1CCCCC1)OCCCC[C@H](C)O2 returned Yeast UUG start 32.
`CCCNC(=O)N(C)C[C@H]1Oc2ncc(-c3ccncc3)cc2C(=O)N([C@@H](C)CO)C[C@H]1C` gave Yeast UUG start -8.
